According to patent publication US6444684B1 (priority 1993, dated 2002):

System: K/1-NRKE tumor (ras^K-transformed NRKE cells)
Assay: In vivo activity against K/1-NRKE tumor xenograft in nude mice

7-N-ACETYLDEMETHYLLAVENDAMYCIN ISOAMYL ESTER
Number Dead Number Treated (150 Mg/Kg/Day IP once daily for 8 days): 0/7
Number Dead Number Treated (300 Mg/Kg/Day IP once daily for 8 days): 0/7
toxicity in tumor-bearing nude mice (in words) (even at doses up to 300 mg/kg/day): little or no toxicity
